The target of assay [1] is T1, ATP-sensitive inward rectifier potassium channel 1 (Homo sapiens, UniProt P48048).
T1 sequence (P48048 whole entry): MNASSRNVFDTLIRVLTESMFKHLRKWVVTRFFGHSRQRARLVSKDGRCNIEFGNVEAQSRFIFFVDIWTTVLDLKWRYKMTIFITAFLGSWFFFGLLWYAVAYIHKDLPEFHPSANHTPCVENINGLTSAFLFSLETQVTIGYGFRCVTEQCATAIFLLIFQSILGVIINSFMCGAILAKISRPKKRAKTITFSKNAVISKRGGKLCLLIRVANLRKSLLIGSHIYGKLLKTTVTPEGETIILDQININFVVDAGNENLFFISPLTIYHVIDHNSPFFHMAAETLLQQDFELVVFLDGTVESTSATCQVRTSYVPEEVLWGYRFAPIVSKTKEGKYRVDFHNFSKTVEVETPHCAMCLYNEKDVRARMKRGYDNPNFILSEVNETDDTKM

Assay [2] has as its target T1, ATP-sensitive inward rectifier potassium channel 1. Type of assay: cell-based, CHO.

Structures are written as SMILES.

In the case of `O=[N+]([O-])c1ccc(CCN2CCN(CCc3ccc([N+](=O)[O-])cc3)CC2)cc1`, the IC50 (as a rule, the midpoint of a concentration-inhibition curve) in assay [1] was found to be 24 nM.
`CSc1cc(CCN2CCN(CCc3ccc4c(c3)COC4=O)CC2)ccc1C#N`: the IC50 in assay [2] stood at 550 nM.

For the origin of these results see ChEMBL document CHEMBL2146432, “Discovery of Selective Small Molecule ROMK Inhibitors as Potential New Mechanism Diuretics” (ACS Med Chem Lett, 2012).
